# Apparent affinities of Ab-14 variants for a coronavirus HR2 peptide

Values reported by Li et al. 2023, doi:10.1038/s41467-023-39022-2 (FLAb copy).

The target is the same throughout: PDVDLGDISGINAS, from the HR2 region of SARS-CoV-2 spike.

Parent: Ab-14, a human scFv built as VH, a 15-residue (Gly4Ser)3 linker, VL. Only the CDRs of the heavy chain vary.
VH: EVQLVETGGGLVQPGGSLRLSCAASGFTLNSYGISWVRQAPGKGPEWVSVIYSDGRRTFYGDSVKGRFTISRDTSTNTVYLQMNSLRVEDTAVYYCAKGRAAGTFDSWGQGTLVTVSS
VL: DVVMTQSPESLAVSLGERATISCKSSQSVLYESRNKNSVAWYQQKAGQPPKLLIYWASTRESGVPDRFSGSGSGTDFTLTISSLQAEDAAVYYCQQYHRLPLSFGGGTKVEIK

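This is the validation round: designs drawn from the data on random variants, tested in the same kind of assay. Their group label is 14H_En_HC (En: ensemble of fine-tuned language models; HC: hill climbing; a sequence that several methods proposed may carry one label only). The scFvs were displayed on barcoded MATa yeast, the peptide on MATalpha yeast. Pairs that bind mate more often; barcode pairs of the diploids are counted by sequencing. Scores were corrected for input abundance and mapped to Kd with protein pairs of known affinity run in the same pool. Mating was done six times.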

Variants are written as CDR1, CDR2 and CDR3 of the heavy chain (limits as in the source). Parent: GFTLNSYGIS, VIYSDGRRTFYGDSVK, GRAAGTFDS.
The read-out is the apparent dissociation constant on a log10 scale (nM): the lower, the stronger.
The mean shown is taken over the replicates in which the pair was detected.
"n.d." marks a missing value. The strain was present, yet no cells mated with the target were sequenced in that replicate, which points to weak or no binding.
The range of this assay differs from that of the first round, and the authors advise against merging the two.
As a blank, each scFv also met three strains without target: over all heavy chain designs, 1% of these pairings were detected, typically at 2.08 and seldom below 0.84. For each scFv, signals with the empty controls are counted beside the result, with their mean in brackets.
Of ten entries with the parent sequence, four were seen in most replicates (averages 0.34 to 2.37), three in one and three in none, so single entries are noisy.
The authors' rule: three or more of the six replicates give a measured affinity, fewer mean a poor binder.

CDR-H1	CDR-H2	CDR-H3	replicates, log10 nM	log10 Kd (nM), mean	control signals
GFNLDEYGIS	VIYADGRRTFYADSVK	GETAGTFDT	-0.57 -0.59 -0.82 -0.87 -0.59 -0.46	-0.65	0/18
GFSLDEYGIS	VIYADGRRTFYADSVK	GNSAGTFDT	0.56 1.06 0.61 0.46 0.36 0.73	0.63	0/18
GFDLNEYGIS	VIYADGRRTAYSDSVK	GEVAGTFVS	-0.09 0.24 0.37 0.11 0.50 0.48	0.27	0/18
GFTLDEYGIS	VIYADGRRTFYADDVK	GETAGTFDI	-0.40 -0.09 -0.32 -0.50 -0.22 -0.32	-0.31	0/18
GFDLNEYGIS	VIYADGRRTQYIDSVK	GEVAGTFDM	n.d. 1.35 0.82 1.61 2.35 0.63	1.35	0/18
GFQLDEYGIS	VIYADGRRTFYQDSVK	GEVAGTFDA	-0.34 -0.28 -0.19 -0.53 0.08 -0.10	-0.23	0/18
GFDLDEYGIS	VIYADGRRTAYADSVK	GTNAGTFDM	n.d. n.d. n.d. n.d. n.d. n.d.	n.d.	0/18
GFDLNEYGIS	VIYADGSRTFYADSVK	GENAGTFDQ	0.24 -0.23 -0.08 0.00 -0.02 0.38	0.05	1/18 (1.59)
GFDLDEYGIS	VIYADGRRTFYSDSVK	GSNAGTFDM	-0.41 -0.26 -0.61 -0.52 -0.40 -0.26	-0.41	0/18
GFDLDEYGIS	VIYADGRRTFYADSVK	GTEAGTFDA	-0.12 -0.75 -0.25 0.02 0.74 0.02	-0.06	0/18
GFNLDEYGIS	VIYADGRRTVYADSVK	GEAAGTFDI	0.69 -0.23 -0.27 -0.45 -0.21 -0.02	-0.08	0/18
GFDLNEYGIS	VIYADGSRTVYSDSVK	GQTAGTFDV	0.35 1.66 0.45 1.10 1.08 0.64	0.88	0/18
GFDLNEYGIS	VIYADGRRTFYSDSVK	GQTGGTFDM	0.53 0.16 0.03 -0.04 0.20 0.97	0.31	0/18
GFDLNEYGIS	VIYADGRRTFYVDSVK	GEIAGTFDV	-0.42 -0.02 -0.08 -0.44 -0.34 -0.19	-0.25	0/18
GFDLDEYGIS	VIYADGRRTYYQDSVK	GQNAGTFDQ	0.27 -0.06 -0.27 -0.57 -0.75 -0.30	-0.28	0/18
GFDLNEYGIS	VIYADGMRTAYIDSVK	GEAAGTFDV	-0.17 0.12 -0.16 0.42 -0.55 -0.12	-0.08	2/18 (1.80)
GFNLEDYGIS	VIYADGRRTFYVDSVK	GQVAGTFDV	-0.40 -0.51 -0.48 -0.67 -0.56 -0.44	-0.51	3/18 (2.66)
GFQLDEYGIS	VIYADGRRTFYQDSVK	GEVAGTFDL	-0.22 -0.05 0.12 -0.07 -0.08 0.04	-0.04	0/18
GFDLDEYGIS	VIYADGQRTFYIDSVK	GETAGTFDV	-0.22 -0.60 -0.39 -0.78 -0.62 -0.62	-0.54	0/18
GFNLNEYGIS	VIYADGKRTFYTDDVK	GEFAGTFDL	-0.32 -0.34 -0.40 -0.57 -0.42 -0.27	-0.39	0/18
GFDLNEYGIS	VIYADGVRKFYADKVK	GENAGTFNV	-0.03 -0.48 -0.30 -0.50 -0.17 -0.10	-0.26	0/18
GFDLNDYGIS	VIYADGRRTAYADSVK	GEYAGTFDI	n.d. n.d. 2.34 n.d. n.d. n.d.	2.34	0/18
GFDLNEYGIS	VIYADGRRTFYTDSVK	GANAGTFDD	n.d. n.d. n.d. n.d. n.d. n.d.	n.d.	0/18
GFDLNEYGIS	VIYADGRRTQYIDSVK	GNQAGTFDI	-0.20 -0.16 0.21 -0.28 -0.49 -0.51	-0.24	0/18
GFDLNEYGIS	VIYADGKRTFYSDKVK	GNVGGTFDI	0.56 0.18 0.03 0.11 0.15 0.43	0.24	0/18
GFDLSEYGIS	VIYADGRRTFYTDSVK	GENAGTFDV	-0.34 -0.26 -0.92 -0.75 -0.40 -0.54	-0.54	0/18
GFDINEYGIS	VIYADGRRTFYADSVK	GQTAGTFDL	-0.49 -0.20 -0.26 -0.48 -0.55 -0.09	-0.35	0/18
GFDLDEYGIS	VIYADGRRTFYADSVK	GTNAGTFDT	-0.45 -0.23 -1.04 -0.75 -0.68 -0.54	-0.62	0/18
GFDLNEYGIS	VIYADGRRTFYTDSVK	GATAGTFDQ	-0.65 -0.69 -0.74 -1.01 -0.81 -0.61	-0.75	0/18
GFDLNEYGIS	VIYADGRRTFYADSVK	GQLAGTFDK	-0.51 -0.67 -0.84 -0.67 -0.66 -0.25	-0.60	0/18
GFDLDEYGIS	VIYADGRRTFYTDSVK	GEVAGTFDV	-0.14 -0.23 0.22 -0.40 -0.17 -0.24	-0.16	0/18
GFDLNEYGIS	VIYADGMRTAYSDSVK	GNEAGTFDS	-0.13 0.13 -0.42 -0.25 -0.67 0.09	-0.21	1/18 (1.29)
GFDLNEYGIS	VIYADGHRTAYSDSVK	GQSAGTFDA	-0.33 -0.50 -0.52 -0.49 -0.62 -0.39	-0.48	0/18
GFDLNEYGIS	VIYADGRRTFYTDSVK	GESAGTFDQ	-0.04 -0.32 -0.39 -0.29 -0.34 -0.11	-0.25	2/18 (3.57)
GFNLNEYGIS	VIYADGRRTAYADSVK	GGNAGTFDV	-0.29 -0.58 -0.88 -0.54 -0.97 -0.28	-0.59	0/18
GFDLNEYGIS	VIYADGRRTAYSDSVK	GEAAGTFDQ	-0.26 -0.75 -0.03 -0.70 -0.31 0.00	-0.34	0/18
GFDLNEYGIS	VIYADGRRTAYLDSVK	GEAAGTFDE	2.12 0.57 1.05 0.46 0.17 1.43	0.97	1/18 (0.97)
GFDLNEYGIS	VIYADGRRTAYADSVK	GKNAGTFNV	-0.44 -0.41 -0.30 -0.66 -0.42 -0.95	-0.53	0/18
GFDLNEYGIS	VIYADGRRTFYSDSVK	GAVAGTFDA	-0.84 -1.01 -0.89 -1.03 -1.05 -0.71	-0.92	1/18 (1.99)
GFDLNEYGIS	VIYADGMRTAYSDSVK	GEAGGTFDV	0.24 0.25 0.17 -0.15 -0.33 0.60	0.13	0/18
GFNLDEYGIS	VIYADGRRTAYSDNVK	GEAGGTFDI	-0.45 0.33 -0.45 0.11 -0.70 -1.06	-0.37	0/18
GFDLNEYGIS	VIYADGRRTFYTDNVK	GQNAGTFDN	-0.33 -0.24 -0.74 -0.77 -0.56 -0.45	-0.52	1/18 (2.98)
GFDLDEYGIS	VIYADGRRTFYTDSVK	GQAAGTFDQ	n.d. n.d. n.d. n.d. n.d. n.d.	n.d.	1/18 (2.22)
GFDLNEYGIS	VIYADGRRTAYSDSVK	GEAGGTFDA	0.17 -0.18 -0.12 -0.04 -0.02 0.18	0.00	0/18
GFDLNEYGIS	VIYADGMRTFYADSVK	GNLAGTFDV	-0.26 -0.39 -0.52 -0.66 -0.53 -0.31	-0.44	0/18
GFDLNEYGIS	VIYADGRRTFYVDSVK	GEEAGTFDQ	0.04 -0.14 -0.10 -0.33 -0.25 -0.12	-0.15	0/18
GFDLNEYGIS	VIYADGRRTAYSDSVK	GEVAGTFVN	-0.15 -0.36 -0.50 -0.44 -0.46 -0.19	-0.35	1/18 (2.44)

Excerpt, the final 4 entries:

{"CDR-H1": "GFDLNEYGIS", "CDR-H2": "VIYADGRRTAYSDSVK", "CDR-H3": "GEAGGTFDA", "replicates, log10 nM": "0.17 -0.18 -0.12 -0.04 -0.02 0.18", "log10 Kd (nM), mean": "0.00", "control signals": "0/18"}
{"CDR-H1": "GFDLNEYGIS", "CDR-H2": "VIYADGMRTFYADSVK", "CDR-H3": "GNLAGTFDV", "replicates, log10 nM": "-0.26 -0.39 -0.52 -0.66 -0.53 -0.31", "log10 Kd (nM), mean": "-0.44", "control signals": "0/18"}
{"CDR-H1": "GFDLNEYGIS", "CDR-H2": "VIYADGRRTFYVDSVK", "CDR-H3": "GEEAGTFDQ", "replicates, log10 nM": "0.04 -0.14 -0.10 -0.33 -0.25 -0.12", "log10 Kd (nM), mean": "-0.15", "control signals": "0/18"}
{"CDR-H1": "GFDLNEYGIS", "CDR-H2": "VIYADGRRTAYSDSVK", "CDR-H3": "GEVAGTFVN", "replicates, log10 nM": "-0.15 -0.36 -0.50 -0.44 -0.46 -0.19", "log10 Kd (nM), mean": "-0.35", "control signals": "1/18 (2.44)"}